The chains behind the UniProt entries cited, without tags or fusion partners.
UniProt Q29040, whole entry: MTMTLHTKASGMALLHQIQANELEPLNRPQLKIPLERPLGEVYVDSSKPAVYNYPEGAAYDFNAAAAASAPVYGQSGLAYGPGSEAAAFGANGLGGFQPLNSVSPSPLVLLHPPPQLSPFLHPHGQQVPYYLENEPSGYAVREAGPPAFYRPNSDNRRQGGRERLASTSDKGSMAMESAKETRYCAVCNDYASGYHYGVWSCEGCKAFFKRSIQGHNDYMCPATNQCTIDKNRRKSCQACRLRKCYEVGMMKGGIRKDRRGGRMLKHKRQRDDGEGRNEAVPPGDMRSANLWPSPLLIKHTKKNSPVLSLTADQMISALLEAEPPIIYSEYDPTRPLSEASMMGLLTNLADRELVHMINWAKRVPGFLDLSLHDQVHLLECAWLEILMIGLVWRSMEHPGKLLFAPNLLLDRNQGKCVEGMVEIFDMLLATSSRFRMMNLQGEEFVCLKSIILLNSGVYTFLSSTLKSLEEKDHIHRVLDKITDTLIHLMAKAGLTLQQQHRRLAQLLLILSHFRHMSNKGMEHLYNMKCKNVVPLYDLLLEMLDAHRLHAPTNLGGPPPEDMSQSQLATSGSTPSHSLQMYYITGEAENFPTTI

In patent EP0551434B1 (BOARD OF REGENTS THE UNIVERSITY OF TEXAS SYSTEM, priority 1990, dated 1992):

Molecular target: estrogen receptor (Sus scrofa, UniProt Q29040)
Test: Saturation estrogen receptor assay with [^3H]estradiol and Scatchard analysis in pig uterus
Assay type: binding
Set-up: Uteri cytosol (2 mg protein/tube) were incubated at 4 ° C for 2 h with [^3H]estradiol; from tissue; host or cells: uterus cytosol of immature domestic swine (100,000 g supernatant, charcoal-treated)
Settings: Scatchard analysis

[^3H]estradiol
Hill coefficient: 0.982
